Data on one compound can be found in PubChem BioAssay AID1851 (National Center for Advancing Translational Sciences (NCATS), 2009).

Protein sequences, listed by entry. Tags and fused reporters are not part of them.
UniProt P10635, whole entry, looked up: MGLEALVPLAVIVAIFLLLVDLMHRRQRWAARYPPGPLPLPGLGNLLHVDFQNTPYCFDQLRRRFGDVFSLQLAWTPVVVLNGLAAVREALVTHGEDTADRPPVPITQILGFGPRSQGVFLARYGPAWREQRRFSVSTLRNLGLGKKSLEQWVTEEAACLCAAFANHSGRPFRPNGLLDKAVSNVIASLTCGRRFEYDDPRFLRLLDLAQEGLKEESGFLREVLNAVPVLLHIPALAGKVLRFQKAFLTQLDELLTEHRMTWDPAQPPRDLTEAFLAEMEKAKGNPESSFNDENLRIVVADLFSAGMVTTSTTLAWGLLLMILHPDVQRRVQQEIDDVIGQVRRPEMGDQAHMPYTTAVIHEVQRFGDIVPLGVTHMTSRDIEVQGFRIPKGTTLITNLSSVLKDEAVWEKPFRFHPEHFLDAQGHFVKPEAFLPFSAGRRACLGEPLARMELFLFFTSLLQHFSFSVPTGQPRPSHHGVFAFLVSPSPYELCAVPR

The entries are a selection whose mix differs from that of the whole data set. Inconclusive results are not listed. Calls follow the shape of the dose curve; as a rule, active = well fitted curve in the direction sought with a large enough effect; inconclusive = small, poorly fitted or top-dose-only effect, or effect the other way; inactive = no such curve, though single readings can be large or run the other way. The source holds several records for some structures; these can differ, active in one and inactive in another.

The assay addresses Cytochrome P450 2D6 (Homo sapiens) (UniProt P10635). The assay can be described thus: Cytochrome panel assay with activity outcomes. To be noted: recombinant CYP, pro-luciferin dealkylation, luminescence, p450-cyp2d6; series mostly up to 57.1 µM.
As a reminder, the AC50 is the concentration giving half of the maximal activity seen. As to `O=c1[nH]c2ccccc2n1C1CCN(CCCC(c2ccc(F)cc2)c2ccc(F)cc2)CC1`, the AC50 is active: 3.16 µM and inactive.
